The text below walks through data of patent US20040063764A1, “Halogen compounds having thrombopoietin receptor agonism” (priority 2001, published 2004).

The chains behind the UniProt entries cited, without tags or fusion partners. Residues count along the entry.
UniProt P40238, 26-635 limits assumed: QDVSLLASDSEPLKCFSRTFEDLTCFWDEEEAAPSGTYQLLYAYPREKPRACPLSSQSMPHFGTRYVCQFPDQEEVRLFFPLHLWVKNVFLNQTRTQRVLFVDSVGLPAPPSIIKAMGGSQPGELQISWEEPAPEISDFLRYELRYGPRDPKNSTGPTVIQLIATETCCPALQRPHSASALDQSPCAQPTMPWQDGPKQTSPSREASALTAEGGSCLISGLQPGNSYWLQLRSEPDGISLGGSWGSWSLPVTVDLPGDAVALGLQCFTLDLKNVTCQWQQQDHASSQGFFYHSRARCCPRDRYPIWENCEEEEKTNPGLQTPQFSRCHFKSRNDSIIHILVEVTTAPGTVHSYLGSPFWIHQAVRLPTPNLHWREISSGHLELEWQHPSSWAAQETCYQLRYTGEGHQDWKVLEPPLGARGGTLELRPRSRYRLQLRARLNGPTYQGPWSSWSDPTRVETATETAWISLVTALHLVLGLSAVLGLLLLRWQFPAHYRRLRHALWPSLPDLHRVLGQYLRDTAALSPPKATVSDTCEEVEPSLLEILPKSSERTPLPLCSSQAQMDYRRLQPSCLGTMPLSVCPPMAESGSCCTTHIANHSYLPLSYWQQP

Molecules are shown by their SMILES.

The target of this experiment is human TPO receptor (Homo sapiens, UniProt P40238). The experiment is described as follows: Thrombopoietic activity: proliferation of TPO dependent BaF/hTPOR cell line (WST-1). To be noted: read-out: ED50; BaF/hTPOR cells, 20 hours incubation then WST-1 for 4 hours, absorbance at 450 nm; ED50 = half concentration of the concentration showing the maximum thrombopoietic activity. The text has this:
The TPO dependent BaF/hTPOR cell line which was established by introducing human TPO receptor into BaF-B03 cells according to Collins et al (J. Cell. Physiol., 137:293-298 (1988)) was used to test the thrombopoietic activity of the present compound. The DNA sequences and encoded peptide sequences for human TPO receptor have been described by Vigon et al (Proc. Natl. Acad. Sci. USA, 89:5640-5644 (1992)). TPO dose not have any ability to support proliferation of interlukin-3 dependent parental cell line BaF-B03. BAF/hTPOR cells were maintained in RPMI medium and 10% WEHI-3 conditioned medium. These cells were washed once with PBS and resuspended in RPMI medium without WHEHI-3 conditioned medium and seeded into each well of 96-well microtiter plates at a density of 5×10^4 cells per well in the presence of the present compound or TPO. After incubation at 37° C. for 20 hours in the 5% CO2 incubator, WST-1 reagent (Takara Biomedicals, Japan) was added to each wells and the cells were further incubated for 4 hours. The absorbance at 450 nm was measured. Table 7 exemplifies the ED50 for tested compounds of the present invention, wherein the ED50 is the half concentration of the concentration showing the maximum thrombopoietic activity.

Take `O=C1NC(=O)/C(=C/c2ccc(C(=O)Nc3nc(-c4cccc(C(F)(F)F)c4F)cs3)cc2)S1`: the EC50 was found to be 70 nM.

As for `O=C1NC(=O)/C(=C/c2ccc(C(=O)Nc3nc(-c4ccc(F)cc4F)cs3)cc2)S1`, the EC50 amounted to 81 nM.
